Assay results taken from patent US20050250090A1, “Assay systems and methods for detecting molecules that interact with SK2 channels” (priority 2003, published 2005).

Amino acid sequences for entries named in this document (tags omitted). Chains listed by the source or under a name are the forms on record and can include a tag or linker.
UniProt Q9H2S1, with tags, fused parts or gaps DUP58-58: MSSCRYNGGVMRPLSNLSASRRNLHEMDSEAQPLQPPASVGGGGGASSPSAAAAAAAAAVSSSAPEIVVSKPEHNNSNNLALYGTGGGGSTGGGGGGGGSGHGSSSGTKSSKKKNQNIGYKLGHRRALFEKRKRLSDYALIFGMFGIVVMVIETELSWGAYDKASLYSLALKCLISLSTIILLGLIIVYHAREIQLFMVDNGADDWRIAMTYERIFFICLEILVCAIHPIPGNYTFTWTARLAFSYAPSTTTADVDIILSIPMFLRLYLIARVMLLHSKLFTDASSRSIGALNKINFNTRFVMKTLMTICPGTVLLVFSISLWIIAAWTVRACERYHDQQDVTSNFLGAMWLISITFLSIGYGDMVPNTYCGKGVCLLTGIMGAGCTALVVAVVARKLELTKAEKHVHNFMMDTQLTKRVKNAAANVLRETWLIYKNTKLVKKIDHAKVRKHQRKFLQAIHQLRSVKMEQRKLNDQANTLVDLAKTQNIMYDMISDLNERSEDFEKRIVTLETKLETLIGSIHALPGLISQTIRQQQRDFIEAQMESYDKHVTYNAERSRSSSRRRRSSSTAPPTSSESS

Biological target: hSK2A^+ (Homo sapiens, UniProt Q9H2S1, DUP58-58)
Test: Membrane potential sensitive dye fluorescence assay (FLIPR384) in tsA201 cells stably expressing SK2

Nc1nc2ccc(OC(F)(F)F)cc2s1 [Riluzole, riluzole]
EC50: 29 µM | nH (hyperpolarization induced by riluzole, FIG. 10): 1.4
